Measured values: ChEMBL document CHEMBL3886986, “Thrombin inhibitors” (2016)

Assay: In Vitro Assay: Relevant in vitro assays are referenced in Morrissette, et al., Bioorg. […] The assays were carried out at 25° C. in 0.05 M TRIS buffer pH 7.4, 0.15 M NaCl, 0.1% PEG. Trypsin assays also contained 1 mM CaC12.

SMILES: NCc1ccc(Cl)cc1CNC(=O)[C@@H]1CCCN1C(=O)[C@@]1(N)CCc2cccnc21
- Ki: 100 nM
